ChEMBL document CHEMBL1127459, “Synthesis and biological activity of 3-[2-(dimethylamino)ethyl]-5-[(1,1-dioxo-5-methyl-1,2,5-thiadiazolidin- 2-yl)-methyl]-1H-indole and analogues: agonists for the 5-HT1D receptor” (J Med Chem, 1994)

Protein sequences, listed by entry. Tags and fused reporters are not part of them.
UniProt P14842, whole entry: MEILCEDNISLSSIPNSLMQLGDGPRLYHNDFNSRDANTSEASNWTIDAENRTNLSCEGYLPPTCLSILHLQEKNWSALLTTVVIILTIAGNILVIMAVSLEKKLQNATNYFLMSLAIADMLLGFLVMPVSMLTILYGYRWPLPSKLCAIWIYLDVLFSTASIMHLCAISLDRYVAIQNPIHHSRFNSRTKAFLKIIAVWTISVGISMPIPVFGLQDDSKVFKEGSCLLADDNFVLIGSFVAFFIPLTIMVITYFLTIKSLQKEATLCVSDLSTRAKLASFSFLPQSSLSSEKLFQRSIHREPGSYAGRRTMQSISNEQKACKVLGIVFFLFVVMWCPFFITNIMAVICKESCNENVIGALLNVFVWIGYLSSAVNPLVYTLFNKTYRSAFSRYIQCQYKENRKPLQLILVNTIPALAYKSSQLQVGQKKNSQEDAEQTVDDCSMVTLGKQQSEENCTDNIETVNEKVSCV

Target: 5-hydroxytryptamine receptor 2A (Rattus norvegicus, UniProt P14842)
Assay: Displacement of [3H]DOB binding to 5-hydroxytryptamine 2A receptor from rat cortex homogenate

CNS(=O)(=O)Cc1ccc2[nH]cc(CCN(C)C)c2c1
IC50: > 10 µM
